This is a selection; strong and weak results do not stand in their true shares. The source made the active and inactive calls.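 Rule for the calls: active = inhibition above about 50% at the single tested dose (limit read from the data); inactive = the rest.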

Sequences of proteins named here, by UniProt entry; tags and fusion partners are left off. Residues count along the entry.
UniProt Q9GZR1, 628-1112 limits assumed: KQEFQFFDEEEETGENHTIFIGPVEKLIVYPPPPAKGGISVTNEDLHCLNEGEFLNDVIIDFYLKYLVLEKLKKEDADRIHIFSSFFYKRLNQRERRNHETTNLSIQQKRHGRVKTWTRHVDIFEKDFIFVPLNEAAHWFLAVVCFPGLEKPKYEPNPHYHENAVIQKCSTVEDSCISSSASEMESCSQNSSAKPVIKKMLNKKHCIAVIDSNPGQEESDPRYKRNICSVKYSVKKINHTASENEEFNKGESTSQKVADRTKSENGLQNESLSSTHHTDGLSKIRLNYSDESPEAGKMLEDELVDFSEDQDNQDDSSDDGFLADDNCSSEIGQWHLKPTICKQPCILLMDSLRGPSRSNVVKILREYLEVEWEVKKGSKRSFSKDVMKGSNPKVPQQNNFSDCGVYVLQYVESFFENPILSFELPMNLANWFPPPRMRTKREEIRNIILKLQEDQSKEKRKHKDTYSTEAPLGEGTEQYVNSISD

This assay concerns the target Sentrin-specific protease 6 (Homo sapiens) (UniProt Q9GZR1). The experiment in a line: inhibition of human SENP6 catalytic domain – biochemical, luminescence, uHTS, primary screen (AID 2599).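 Note: plate controls were DMSO wells with enzyme for no effect and DMSO wells lacking enzyme for full effect.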 The note with it: Recombinant SENP6 catalytic domain, aminoluciferin luminescence; at 10 µM; hits give high values.
As usually defined, the inhibition is the drop in the measured response relative to a control, in per cent. Consider `CCC(=O)N(c1ccccc1)C1(COC)CCN(CCn2nnn(CC)c2=O)CC1`, for which the inhibition was inactive: -8.56%.

Regarding `CCC(=O)N(c1ccccc1)C1(COC)CCN(CCc2cccs2)CC1`, the inhibition is inactive: -10.9%.

(Values after PubChem BioAssay AID2599 (Sanford-Burnham Center for Chemical Genomics, 2010).)
